Data set [1] in a line: Apparent permeability across apical to basolateral side in human Caco-2 cells at 10 uM measured after 60 mins by LC-MS/MS analysis. In kind it is ADME, cell-based. The note with it: caco-2, 1 h.
Data set [2] is described as follows: Intrinsic clearance in human liver microsomes at 0.5 uM in presence of NADPH regenerating system measured for 45 mins per mg protein by LC-MS/MS analysis. In kind it is ADME, Microsome. The note with it: 0.75 h.
Data set [3] is described as follows: Volume of distribution at steady state in C57BL/6J mouse at 30 mg/kg, po and 1.5 mg/kg, iv by LC-MS/MS analysis. The note with it: in vivo. The class given is ADME, organism-based.
The nature of data set [4]: Free Cmax in C57BL/6J mouse plasma at 30 mg/kg, po and 1.5 mg/kg, iv by LC-MS/MS analysis. The class given is ADME, organism-based. The note with it: in vivo.
Data set [5] can be described thus: Free AUC last in C57BL/6J mouse plasma at 30 mg/kg, po and 1.5 mg/kg, iv by LC-MS/MS analysis. In kind it is ADME, organism-based. The note with it: in vivo.
A short description of data set [6]: Time of last measurable concentration in C57BL/6J mouse plasma at 30 mg/kg, po and 1.5 mg/kg, iv by UPLC-MS/MS analysis. In kind it is ADME, organism-based. The note with it: in vivo.
A short description of data set [7]: Free Cmax in C57BL/6J mouse lungs at 30 mg/kg, po and 1.5 mg/kg, iv by LC-MS/MS analysis. In kind it is ADME, organism-based, Lung. The note with it: in vivo.
Data set [8] in a line: Free AUC last in C57BL/6J mouse lungs at 30 mg/kg, po and 1.5 mg/kg, iv by LC-MS/MS analysis. In kind it is ADME, organism-based, Lung. The note with it: in vivo.
Data set [9] is described as follows: Time of last measurable concentration in C57BL/6J mouse lungs at 30 mg/kg, po and 1.5 mg/kg, iv by UPLC-MS/MS analysis. The class given is ADME, organism-based, Lung. The note with it: in vivo.
Data set [10] is described as follows: Volume of distribution at steady state in C57BL/6J mouse at 30 mg/kg, po and 2 mg/kg, iv by LC-MS/MS analysis. The class given is ADME, organism-based. The note with it: in vivo.
Data set [11] in a line: Free Cmax in C57BL/6J mouse plasma at 30 mg/kg, po and 2 mg/kg, iv by LC-MS/MS analysis. In kind it is ADME, organism-based. The note with it: in vivo.
The nature of data set [12]: Free AUC last in C57BL/6J mouse plasma at 30 mg/kg, po and 2 mg/kg, iv by LC-MS/MS analysis. In kind it is ADME, organism-based. The note with it: in vivo.
Data set [13] is described as follows: Time of last measurable concentration in C57BL/6J mouse plasma at 30 mg/kg, po and 2 mg/kg, iv by UPLC-MS/MS analysis. The class given is ADME, organism-based. The note with it: in vivo.
A short description of data set [14]: Free Cmax in C57BL/6J mouse lungs at 30 mg/kg, po and 2 mg/kg, iv by LC-MS/MS analysis. The class given is ADME, organism-based, Lung. The note with it: in vivo.
Data set [15] in a line: Free AUC last in C57BL/6J mouse lungs at 30 mg/kg, po and 2 mg/kg, iv by LC-MS/MS analysis. The note with it: in vivo. The class given is ADME, organism-based, Lung.
The nature of data set [16]: Time of last measurable concentration in C57BL/6J mouse lungs at 30 mg/kg, po and 2 mg/kg, iv by UPLC-MS/MS analysis. The class given is ADME, organism-based, Lung. The note with it: in vivo.

Consider `COC(=O)Nc1nc(C)c(S(=O)(=O)N2CCN(C[C@H](C)Nc3ncnc4c(C(=O)N(C)C)cccc34)CC2)s1`, for which, in data set [1], the Papp result is listed as “Bld”.
For the compound `Cc1nc(NC(C)CN2CCN(S(=O)(=O)c3ccc(Cl)c(Cl)c3)CC2)c2scc(C)c2n1` (stereo in doubt; 36b), in [2], the CLH is 390 µL/min.
As for `COC(=O)Nc1nc(C)c(S(=O)(=O)N2CCN(C[C@H](C)Nc3ncnc4c(-c5ccc(F)c(CN(C)C)c5)cccc34)CC2)s1`, the Vdss in [3] is 0.28 L/kg. Further, the fCmax came to 235 ng/mL in data set [4] and 484 ng/mL in data set [7]. Moreover, the values for the fAUClast in [5] and in data set [8] were 1.281 µg·h/mL and 4.3 µg·h/mL, respectively. Besides, the Tlast in [6] and in [9] was 24 h throughout.
Regarding `COC(=O)Nc1nc(C)c(S(=O)(=O)N2CCN(C[C@H](C)Nc3ncnc4c(-c5cccnc5)cccc34)CC2)s1`, the Vdss in [10] was 0.21 L/kg. In addition, the figures for the fCmax in data set [11] and in data set [14] were 90 ng/mL and 174 ng/mL, respectively. Further, the fAUClast in [12] was determined as 0.11 µg·h/mL; in [15], 0.24 µg·h/mL. The Tlast in [13] and in [16] was 8 h throughout.

Source of the values: ChEMBL document CHEMBL5385906, “Discovery of a Potent, Selective, and Orally Bioavailable Tool Compound for Probing the Role of Lysophosphatidic Acid Type 2 Receptor Antagonists in Fibrotic Disorders” (J Med Chem, 2023).
